Experimental data as given in publication PMC2584039 (Molecular Pain, 2008).

Key:
[1] = test system: CFA-induced mechanical hypersensitivity; conditions: cited from earlier work; for effect on CFA-induced mechanical hypersensitivity: intraplantar injection, wild-type (TRPA1+/+) but not TRPA1 knock-out mice
[2] = test system: CFA-induced mechanical hypersensitivity; conditions: 1 hr post dosing

Row | Structure (SMILES) | effect on CFA-induced cold hypersensitivity ([1]; intra-paw injection, ref Petrus et al. (2007)) | effect on CFA-induced mechanical hypersensitivity [1] | effect on CFA-induced mechanical hypersensitivity ([1]; listed as AP-18) | percent reversal of CFA-induced mechanical hypersensitivity ([2]; 20 mg/kg p.o., vehicle 5%) [%] | effect on mechanical hypersensitivity of the injected paw vs vehicle ([2]; HC-030031 100 and 300 mg/kg, naproxen 20 mg/kg, p.o.)
1 | CC(=C\c1ccc(Cl)cc1)/C(C)=N/O [AP18] | reverse partially | completely reversed | significantly attenuated |  | 
2 | COc1ccc2cc([C@H](C)C(=O)O)ccc2c1 [naproxen] |  |  |  | 53 | significantly attenuated

Where two headings read alike, the source gives them in different places.
